Antibody variant affinities, Ab-91 heavy chain, assay 2

Target: peptide PDVDLGDISGINAS, taken from heptad repeat 2 (HR2) of SARS-CoV-2 spike.

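In library AAYL51, one, two or three CDR residues were substituted; doubles and triples were drawn at random. AlphaSeq pools MATa yeast showing the antibodies with MATalpha yeast showing the peptide. Mating (16 h, 30 °C) was followed by selection of diploids and sequencing of their barcodes. Read counts were normalised to the haploid input and turned into Kd by a linear fit to BCL2-family pairs of known affinity, for each replicate. There are three technical replicates.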

Parent scFv Ab-91: VL joined to VH by the linker GGGGSGGGGSGGGGS. Changes lie in the heavy chain CDRs alone.
VL: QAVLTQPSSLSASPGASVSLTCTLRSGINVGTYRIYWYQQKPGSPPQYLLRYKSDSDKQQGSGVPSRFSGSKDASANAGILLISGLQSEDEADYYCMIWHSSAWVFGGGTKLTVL
VH: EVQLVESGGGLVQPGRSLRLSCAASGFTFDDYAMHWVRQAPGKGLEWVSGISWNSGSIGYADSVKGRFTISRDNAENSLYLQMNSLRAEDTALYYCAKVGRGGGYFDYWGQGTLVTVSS

Positions count from residue 1 of the parent VH; D31L puts L in place of D.
Every variant below is changed at V64 of the VH (sequential numbering).
Values are apparent Kd, the geometric mean of the replicates that gave a signal; lower means stronger binding.
An entry "nd" has no value in the source: the pair was not observed among the diploids in any replicate. This suggests poor binding but is not conclusive.

For D31L+G59E+V64P, the assay gave nd (0 of 3 replicates; controls 0 of 9). For A33S+V64M+Y108T, the assay gave 3.1 nM (3 of 3 replicates; controls 4 of 9). Variant G59Y+V64F showed 62 µM (1 of 3 replicates; controls 3 of 9). For V64S+V99T+Y105A, the assay gave 290 µM (3 of 3 replicates; controls 7 of 9). Variant N54T+S57G+V64R gave nd (0 of 3 replicates; controls 0 of 9). For D30P+W53F+V64H, the assay gave 3.2 µM (3 of 3 replicates; controls 7 of 9). Variant D31T+S57M+V64N showed 160 nM (1 of 3 replicates; controls 0 of 9). For V64Y+G103P+G104K, the assay gave nd (0 of 3 replicates; controls 0 of 9). Variant T28D+D31S+V64K showed 10 µM (2 of 3 replicates; controls 0 of 9).

With S57N+V64D+D107T the result was 3.8 µM (1 of 3 replicates; controls 1 of 9). Variant H35E+N54H+V64H gave nd (0 of 3 replicates; controls 0 of 9). With V64S+K65C+G104R the result was 24 µM (2 of 3 replicates; controls 0 of 9). Variant S63E+V64P showed 55 µM (2 of 3 replicates; controls 1 of 9). With G50I+I58M+V64M the result was nd (0 of 3 replicates; controls 0 of 9). Variant G26P+G50I+V64K showed nd (0 of 3 replicates; controls 1 of 9). Variant M34K+V64M+R101Q showed nd (0 of 3 replicates; controls 0 of 9). With G26A+A61D+V64K the result was 4.8 µM (2 of 3 replicates; controls 1 of 9). With D31N+V64H+D107G the result was 47 µM (1 of 3 replicates; controls 2 of 9).

Variant A61L+V64C+G100N gave nd (0 of 3 replicates; controls 1 of 9). Variant W53K+V64K+G102R gave 14 µM (1 of 3 replicates; controls 0 of 9). For T28M+F29S+V64P, the assay gave nd (0 of 3 replicates; controls 1 of 9). For V64H+R101C+G103W, the assay gave nd (0 of 3 replicates; controls 3 of 9). For Y32E+V64H+D107R, the assay gave 92 µM (1 of 3 replicates; controls 4 of 9). Variant F29P+S57C+V64L showed 19 µM (1 of 3 replicates; controls 3 of 9). Variant I58R+A61W+V64S gave 80 µM (2 of 3 replicates; controls 1 of 9). Variant N54G+V64T+K65D gave nd (0 of 3 replicates; controls 1 of 9). Variant A61R+V64E+V99C showed 200 µM (2 of 3 replicates; controls 5 of 9).

For F27C+N54K+V64Q, the assay gave 7.1 µM (1 of 3 replicates; controls 2 of 9). For G26A+V64Y, the assay gave nd (0 of 3 replicates; controls 0 of 9). For F29P+V64N, the assay gave 14 µM (1 of 3 replicates; controls 1 of 9). Variant F27V+S55N+V64P showed 73 µM (2 of 3 replicates; controls 3 of 9). Variant D62M+S63F+V64I showed nd (0 of 3 replicates; controls 0 of 9). Variant S63H+V64F+V99G gave nd (0 of 3 replicates; controls 0 of 9). For D30N+V64H+Y105M, the assay gave 98 µM (3 of 3 replicates; controls 7 of 9). Variant N54V+G59M+V64Q showed 280 µM (3 of 3 replicates; controls 3 of 9). For S55R+G59C+V64M, the assay gave 4.7 µM (1 of 3 replicates; controls 0 of 9).

Variant V64A+F106I+D107L gave 33 nM (3 of 3 replicates; controls 4 of 9). Variant A33C+S55N+V64D gave 160 µM (2 of 3 replicates; controls 4 of 9). Variant F27K+V64P+Y105G gave nd (0 of 3 replicates; controls 2 of 9). Variant S63H+V64F+R101H showed 100 µM (2 of 3 replicates; controls 1 of 9). Variant V64D+V99F+Y108T showed nd (0 of 3 replicates; controls 1 of 9). With A33W+G50A+V64D the result was nd (0 of 3 replicates; controls 1 of 9). With D31A+A61S+V64G the result was 16 µM (1 of 3 replicates; controls 0 of 9). With I51L+S55Y+V64T the result was 46 µM (2 of 3 replicates; controls 7 of 9). Variant I51R+V64A+Y108K gave nd (0 of 3 replicates; controls 3 of 9).

Variant Y60P+A61Q+V64Q gave nd (0 of 3 replicates; controls 0 of 9). With S55Q+V64D+V99G the result was nd (0 of 3 replicates; controls 0 of 9).

Empty control strains, which show no peptide, gave a signal in 21% of pairings with library AAYL51; the median was 34 µM and 95% of these signals were weaker than 1.8 µM. No background was subtracted. For each scFv, signals with the empty controls are counted beside the result.

From the AlphaSeq antibody data of Engelhart et al. 2022 (doi:10.1038/s41597-022-01779-4), copy in the FLAb collection.